From ChEMBL document CHEMBL1131891, “Antiplatelet actions of aporphinoids from Formosan plants” (Bioorg Med Chem Lett, 1999) come the findings set out here.

The species entered for assay [1] is Oryctolagus cuniculus. Description: Effect on platelet aggregation induced by adenosine 5'-diphosphate (ADP) in washed rabbit platelet.
The species named for assay [2] is Oryctolagus cuniculus. In words: Effect on platelet aggregation induced by collagen in washed rabbit platelet. It counts as functional.
The species entered for assay [3] is Oryctolagus cuniculus. Description: Effect on platelet aggregation induced by platelet activating factor(PAF) in washed rabbit platelet.
For assay [4], the species on record is Oryctolagus cuniculus. In words: Effect on platelet aggregation induced by arachidonic acid(AA) in washed rabbit platelet.

The structures appear in SMILES notation.

On to `CN1CCc2cc3c(c4c2[C@@H]1Cc1ccc2c(c1-4)OCO2)OCO3.O=[N+]([O-])c1cc([N+](=O)[O-])c(O)c([N+](=O)[O-])c1`, for which the Aggregation came out at 90.2% in assay [1], 0% in assay [2], 74.6% in assay [3] and 77.3% in assay [4].
